Measurements: PMC8433439, “Bivalent ligands promote endosomal trafficking of the dopamine D3 receptor-neurotensin receptor 1 heterodimer” (Communications Biology, 2021)

Chains of the proteins cited; added tags and fusions are not shown.
UniProt P30989, whole entry: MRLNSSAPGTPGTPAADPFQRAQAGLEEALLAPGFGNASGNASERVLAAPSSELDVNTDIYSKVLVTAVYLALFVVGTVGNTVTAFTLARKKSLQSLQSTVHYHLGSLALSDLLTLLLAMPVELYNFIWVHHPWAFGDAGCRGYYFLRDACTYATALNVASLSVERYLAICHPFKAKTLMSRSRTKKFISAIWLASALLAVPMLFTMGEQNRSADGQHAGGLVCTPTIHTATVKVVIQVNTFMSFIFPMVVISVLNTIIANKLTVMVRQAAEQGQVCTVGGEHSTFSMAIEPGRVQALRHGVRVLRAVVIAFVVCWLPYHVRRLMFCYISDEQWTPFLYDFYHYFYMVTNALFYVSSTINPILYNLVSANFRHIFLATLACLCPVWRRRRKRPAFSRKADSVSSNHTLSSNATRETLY

Key:
[1] = target: NTSR1-ProLink (NTSR1 fused in frame with the PK1 sequence) (human) (UniProt P30989); experiment: radioligand binding; saturation binding experiments on transfected β-arrestin HEK293 cells (DiscoverX) used for the PathHunter assay; radioligand not named there
[2] = target: wild-type human neurotensin receptor 1 (human) (UniProt P30989); experiment: as above
[3] = target: NTSR1-ProLink (NTSR1 fused in frame with the PK1 sequence) (human) (UniProt P30989)
[4] = target: wild-type human neurotensin receptor 1 (human) (UniProt P30989)

Kd [1]: 1.9 nM | Kd [2]: 1.4 nM | β-arrestin2 recruitment to NTSR1-ProLink (DiscoverX enzyme fragment complementation), EC50 of NT(8-13) [3]: 0.58 nM | β-arrestin2 recruitment detected at D3R-ProLink in cells coexpressing wild-type NTSR1 (DiscoverX enzyme fragment complementation), EC50 of NT(8-13) [4]: 1.5 nM
Substance: NT(8-13), peptide NTSR1 agonist
